Results from patent publication US10017827B2, “Herbicide-resistant sunflower plants with multiple herbicide resistant alleles of AHASL1 and methods of use” (BASF AGROCHEMICAL PRODUCTS B.V., priority 2007, dated 2018).

How the values were obtained:
[1] = system: A205V sunflower genotypes (mean of H1, L1, L2); test: Greenhouse whole-plant response to imazapyr; format: in vivo; conditions: 14 DAT
Excerpt: (§1) Experiment was arranged as a randomized block design with a full factorial (sunflower line×treatment) arrangement of treatments and 10 replications.

[2] = system: sunflower hybrid H1 (L1 × L2, A205V); test: Greenhouse whole-plant response to imazapyr; format: in vivo; conditions: 14 DAT
Excerpt: as §1

[3] = system: sunflower hybrid H3 (L3 × L2, A205V + A122T); test: Greenhouse whole-plant response to imazapyr; format: in vivo; conditions: 14 DAT
Excerpt: as §1

[4] = system: sunflower hybrid H4 (L1 × L4, A205V + A122T); test: Greenhouse whole-plant response to imazapyr; format: in vivo; conditions: 14 DAT
Excerpt: as §1

[5] = system: sunflower line L1 (A205V); test: Greenhouse whole-plant response to imazapyr; format: in vivo; conditions: 14 DAT
Excerpt: as §1

[6] = system: sunflower line L2 (A205V); test: Greenhouse whole-plant response to imazapyr; format: in vivo; conditions: 14 DAT
Excerpt: as §1

[7] = system: sunflower hybrid H5 (L3 × WT, 122/Wild type); conditions: in vivo
[8] = system: sunflower line BTI-OL-M1511; conditions: in vivo
[9] = system: sunflower line BTI-OL-M1709; conditions: in vivo
[10] = system: sunflower line BTI-OL-2201; conditions: in vivo
[11] = system: sunflower line VB141 (high oleic); conditions: 160 gr/ha at V4
[12] = system: sunflower line HA445 (high oleic); conditions: 160 gr/ha at V4
[13] = system: sunflower line OB712 (high oleic)
[14] = system: sunflower line B770 (conventional); conditions: 160 gr/ha at V4
[15] = system: sunflower line BTK112 (conventional)
[16] = system: AHAS enzyme, A122T/A205V heterozygous hybrid (IA9 × R733); conditions: 100 μM imazapyr, Set 1
[17] = system: heterozygous A205V sunflower entries; conditions: 160 g ai/ha imazapyr, 21 DAT
[18] = system: sunflower hybrids carrying at least one allele A122T (A122T/A122T, A122T/A205V, A122/WT); conditions: hybrids with at least one A122T allele; 160 g ai/ha at R1; 14 DAT
[19] = system: sunflower hybrids A205V/A205V and A205V/WT; conditions: 160 g ai/ha at R1, 14 DAT
[20] = system: AHAS enzyme, A205V homozygous (B7imi (IMISUN1)); conditions: 50 μM imazamox, Set 2

CC(C)C1(C)N=C(c2ncccc2C(=O)O)NC1=O (centres unmarked) [imazapyr]
Phytotoxicity Index (0-9) ([1]; 0.5x (40 g ai/ha)): 0 | Phytotoxicity Index (0-9) ([1]; 1x (80 g ai/ha)): 0 | Phytotoxicity Index (0-9) ([2]; 0.5x (40 g ai/ha)): 0 | Phytotoxicity Index (0-9) ([2]; 1x (80 g ai/ha)): 0 | Phytotoxicity Index (0-9) ([2]; 4x (320 g ai/ha)): 8.0 | Phytotoxicity Index (0-9) ([2]; 6x (480 g ai/ha)): 9.0 | Phytotoxicity Index (0-9) ([3]; 0.5x (40 g ai/ha)): 0.5 | Phytotoxicity Index (0-9) ([3]; 1x (80 g ai/ha)): 0.5 | biomass accumulation, % of untreated ([3]; 1x (80 g ai/ha)): 100.0% | Phytotoxicity Index (0-9) ([3]; 2x (160 g ai/ha)): 0.5 | Phytotoxicity Index (0-9) ([3]; 3x (240 g ai/ha)): 0.5 | Phytotoxicity Index (0-9) ([3]; 4x (320 g ai/ha)): 0.5 | Phytotoxicity Index (0-9) ([3]; 5x (400 g ai/ha)): 0.6 | Phytotoxicity Index (0-9) ([3]; 6x (480 g ai/ha)): 1.0 | Phytotoxicity Index (0-9) ([4]; 0.5x (40 g ai/ha)): 0.0 | plant height, % of untreated ([4]; 0.5x (40 g ai/ha)): 100.0% | Phytotoxicity Index (0-9) ([4]; 1x (80 g ai/ha)): 0.0 | Phytotoxicity Index (0-9) ([4]; 2x (160 g ai/ha)): 0.0 | plant height, % of untreated ([4]; 2x (160 g ai/ha)): 100.0% | Phytotoxicity Index (0-9) ([4]; 3x (240 g ai/ha)): 0.0 | plant height, % of untreated ([4]; 3x (240 g ai/ha)): 100.0% | Phytotoxicity Index (0-9) ([4]; 4x (320 g ai/ha)): 0.0 | Phytotoxicity Index (0-9) ([4]; 5x (400 g ai/ha)): 0.2 | Phytotoxicity Index (0-9) ([4]; 6x (480 g ai/ha)): 0.0 | Phytotoxicity Index (0-9) ([5]; 0.5x (40 g ai/ha)): 0 | plant height, % of untreated ([5]; 0.5x (40 g ai/ha)): 100.0% | Phytotoxicity Index (0-9) ([5]; 1x (80 g ai/ha)): 0 | plant height, % of untreated ([5]; 1x (80 g ai/ha)): 100.0% | plant height, % of untreated ([5]; 3x (240 g ai/ha)): 50.0% | Phytotoxicity Index (0-9) ([6]; 0.5x (40 g ai/ha)): 0 | Phytotoxicity Index (0-9) ([6]; 1x (80 g ai/ha)): 0 | Mean Phytotoxicity Index (0-50) [7]: 5 | Mean Phytotoxicity Index (PI, 0-9) [8]: 0.5 | outcome of herbicide treatment [8]: resistance level similar to that observed in the resistant line GM40 | Mean Phytotoxicity Index (PI, 0-9) [9]: 0.2 | outcome of herbicide treatment [9]: resistance level similar to that observed in the resistant line GM40 | Mean Phytotoxicity Index (PI, 0-9) [10]: 0.2 | outcome of herbicide treatment [10]: resistance level similar to that observed in the resistant line GM40 | outcome of herbicide treatment [11]: killed | outcome of herbicide treatment [12]: killed | outcome of herbicide treatment ([13]; OB712, 160 gr/ha at V4): killed | Mean Phytotoxicity Index (PI, 0-9) ([13]; in vivo): 9 | outcome of herbicide treatment [14]: killed | outcome of herbicide treatment ([15]; BTK112, 160 gr/ha at V4): killed | Mean Phytotoxicity Index (PI, 0-9) ([15]; in vivo): 9 | AHAS activity, % of untreated control [16]: 60% | phytotoxicity [17]: 20-43% | Phytotoxicity Index (0-50) [18]: less than 11.7 | Phytotoxicity Index (0-50) [19]: greater than 35

COCc1cnc(C2=NC(C)(C(C)C)C(=O)N2)c(C(=O)O)c1 (centres unmarked) [imazamox]
AHAS activity, % of untreated control [20]: 30%
